{
  "source": "patent US8871208B2",
  "about": "“11-β-hydroxysteroid dehydrogenase type 1 (11β-HSD1) inhibitors and uses thereof” (AbbVie Inc., priority 2009, dated 2014)",
  "key": {"human 11β-HSD-2": {"target": "T1, human 11β-HSD-2 (Homo sapiens, UniProt P80365)", "T1 sequence (P80365 1-405)": "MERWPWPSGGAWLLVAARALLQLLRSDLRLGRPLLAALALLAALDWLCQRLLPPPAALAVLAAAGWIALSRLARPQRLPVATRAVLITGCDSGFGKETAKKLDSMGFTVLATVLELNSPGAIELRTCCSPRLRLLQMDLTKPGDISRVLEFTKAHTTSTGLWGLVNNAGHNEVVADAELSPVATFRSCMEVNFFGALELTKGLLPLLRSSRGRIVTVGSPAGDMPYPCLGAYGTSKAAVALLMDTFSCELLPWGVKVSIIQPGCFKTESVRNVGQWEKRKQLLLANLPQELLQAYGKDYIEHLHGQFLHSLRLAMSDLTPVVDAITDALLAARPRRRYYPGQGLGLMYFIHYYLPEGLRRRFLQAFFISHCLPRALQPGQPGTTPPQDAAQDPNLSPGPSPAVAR", "assay": "Human 11β-HSD-2 enzymatic SPA assay", "type": "biochemical", "settings": "human enzyme", "method": "(§1) The ability of test compounds to inhibit human 11β-HSD-1 enzymatic activity in vitro was evaluated in a Scintillation Proximity Assay (SPA). […] The reaction was stopped by adding a non-specific 11β-HSD inhibitor, 18β-glycyrrhetinic acid. The tritiated cortisol was captured by a mixture of an anti-cortisol monoclonal antibody and SPA beads coated with anti-mouse antibodies. The reaction plate was shaken at room temperature and the radioactivity bound to SPA beads was then measured on a β-scintillation counter. The 11β-HSD-1 assay was carried out in 96-well microtiter plates in a total volume of 220 μl. […] In order to drive the reaction in the forward direction, 1 mM G-6-P was also added. Solid compound was dissolved in DMSO to make a 10 mM stock followed by a subsequent 10-fold dilution with 3% DMSO in Tris/EDTA buffer (pH 7.4). 22 μl of titrated compounds was then added in triplicate to the substrate. Reactions were initiated by the addition of 10 μl of 0.1 mg/ml E. coli lysates overexpressing 11β-HSD-1 enzyme. […] After shaking for 30 minutes, plates were read on a liquid scintillation counter Topcount. Percent inhibition was calculated based on the background and the maximal signal. […] Percent of inhibition of each compound was calculated relative to the maximal signal and IC50 curves were generated. […]"}, "[1]": {"target": "T2, truncated human 11β-HSD-1 enzyme (24-287AA) (Homo sapiens, UniProt P28845)", "T2 construct": "truncated human 11β-HSD-1 enzyme (24-287AA); made in house; host or cells: E. coli (lysate)", "assay": "Human 11β-HSD-1 enzymatic SPA assay", "type": "biochemical", "method": "as §1"}},
  "data": [
    {"substance": "(2E)-3-((E)-4-{[2-(4-Chlorophenoxy)-2-methylpropanoyl]amino}-1-adamantyl)acrylic acid", "values": [
      {"measurement": "IC50", "setting": "human 11β-HSD-2", "value": "> 100000", "unit": "nM"},
      {"measurement": "IC50", "setting": "[1]", "value": 30, "unit": "nM"}
    ]}
  ]
}
